One test relates to BMP receptors. The test is described as follows: In vitro BMP receptor activation, dual luciferase assay (BRE plasmid / Rinella plasmid) in ATDC5 cells. Format: cell-based. The protocol:
FIG. 11 is a bar graph showing activation of BMP receptors (by measuring bone response element (BRE) expression) in cells treated with (1) Phosphate Buffered Saline (control), (2) rhBMP-2, (3) variant BMP-2, (4) Ctsk-digested BP-vBMP-2 or (5) undigested BP-vBMP-2. Luciferase expression from BRE plasmid was detected and normalized to control Rinella plasmid luciferase expression.
Activation of BMP receptors in vitro was assessed using a dual luciferase assay where a Rinella plasmid and BMP-responsive element (BRE) plasmid were transfected into ATDC5 cells known to express BMP receptors. These transgenic ATDC5 cells then underwent under one of the following five treatments: 1) commercially available rhBMP-2; 2) variant BMP-2; 3) Ctsk-digested BP-vBMP-2; 4) undigested BP-vBMP-2; or 5) phosphate buffered saline. Luciferase 1 expression from BRE plasmid was detected and normalized to control Rinella plasmid luciferase 2 expression (FIG. 11).

In the next test the test system is osteopenic mice. The settings on record: systemic, 0.5 mg, 1 mg and 5 mg per mouse per day; cited from earlier work.

We go through two molecules from patent US20260284201A1, “COMPOSITIONS AND METHODS FOR TREATING TENDON AND BONE INJURIES” (The United States Government as represented by the …, priority 2023, published 2026).

B1: BP-BMP-2: BMP-2 covalently bound to BP molecules via a cat-K cleavable peptide sequence using click chemistry (conjugate, UniProt P12643 283-396, looked up)
Bone morphogenetic protein 2: QAKHKQRKRLKSSCKRHPLYVDFSDVGWNDWIVAPPGYHAFYCHGECPFPLADHLNSTNHAIVQTLVNSVNSKIPKACCVPTELSAISMLYLDENEKVVLKNYQDMVVEGCGCR
modifications: bisphosphonate via cathepsin K-cleavable peptide linker
For B1, the “activation of BMP receptors (BRE luciferase normalized to Rinella luciferase)” value in the test on BMP receptors (Ctsk-digested) is recorded as “capable of activating BMP receptors in a similar fashion to commercially available rhBMP-2”; in the test on BMP receptors (undigested) it was “does not activate BMP receptors above the level of the control condition”.

B2: rhBMP-2: commercially available recombinant human BMP-2 (protein, UniProt P12643 283-396, looked up)
Bone morphogenetic protein 2: B1 Bone morphogenetic protein 2
With B2, the total bone volume entry in the test with osteopenic mice was “statistically significant increases in total bone volume”.
